Only a part is listed here, and it is no random draw. Activity calls are given as the source filed them. The call rests on the fitted dose curve; in most records, active means well fitted inhibition curve with a large enough effect in the polarisation, with a control signal flat (not every such curve was filed as active); inconclusive means small, poorly fitted or top-dose-only effect, or effect the other way, or a change in a side signal; inactive means no such curve, though single readings can be large or run the other way; the % refers to the polarisation.

Protein sequences, listed by entry. Tags and fused reporters are not part of them.
UniProt Q03164, whole entry: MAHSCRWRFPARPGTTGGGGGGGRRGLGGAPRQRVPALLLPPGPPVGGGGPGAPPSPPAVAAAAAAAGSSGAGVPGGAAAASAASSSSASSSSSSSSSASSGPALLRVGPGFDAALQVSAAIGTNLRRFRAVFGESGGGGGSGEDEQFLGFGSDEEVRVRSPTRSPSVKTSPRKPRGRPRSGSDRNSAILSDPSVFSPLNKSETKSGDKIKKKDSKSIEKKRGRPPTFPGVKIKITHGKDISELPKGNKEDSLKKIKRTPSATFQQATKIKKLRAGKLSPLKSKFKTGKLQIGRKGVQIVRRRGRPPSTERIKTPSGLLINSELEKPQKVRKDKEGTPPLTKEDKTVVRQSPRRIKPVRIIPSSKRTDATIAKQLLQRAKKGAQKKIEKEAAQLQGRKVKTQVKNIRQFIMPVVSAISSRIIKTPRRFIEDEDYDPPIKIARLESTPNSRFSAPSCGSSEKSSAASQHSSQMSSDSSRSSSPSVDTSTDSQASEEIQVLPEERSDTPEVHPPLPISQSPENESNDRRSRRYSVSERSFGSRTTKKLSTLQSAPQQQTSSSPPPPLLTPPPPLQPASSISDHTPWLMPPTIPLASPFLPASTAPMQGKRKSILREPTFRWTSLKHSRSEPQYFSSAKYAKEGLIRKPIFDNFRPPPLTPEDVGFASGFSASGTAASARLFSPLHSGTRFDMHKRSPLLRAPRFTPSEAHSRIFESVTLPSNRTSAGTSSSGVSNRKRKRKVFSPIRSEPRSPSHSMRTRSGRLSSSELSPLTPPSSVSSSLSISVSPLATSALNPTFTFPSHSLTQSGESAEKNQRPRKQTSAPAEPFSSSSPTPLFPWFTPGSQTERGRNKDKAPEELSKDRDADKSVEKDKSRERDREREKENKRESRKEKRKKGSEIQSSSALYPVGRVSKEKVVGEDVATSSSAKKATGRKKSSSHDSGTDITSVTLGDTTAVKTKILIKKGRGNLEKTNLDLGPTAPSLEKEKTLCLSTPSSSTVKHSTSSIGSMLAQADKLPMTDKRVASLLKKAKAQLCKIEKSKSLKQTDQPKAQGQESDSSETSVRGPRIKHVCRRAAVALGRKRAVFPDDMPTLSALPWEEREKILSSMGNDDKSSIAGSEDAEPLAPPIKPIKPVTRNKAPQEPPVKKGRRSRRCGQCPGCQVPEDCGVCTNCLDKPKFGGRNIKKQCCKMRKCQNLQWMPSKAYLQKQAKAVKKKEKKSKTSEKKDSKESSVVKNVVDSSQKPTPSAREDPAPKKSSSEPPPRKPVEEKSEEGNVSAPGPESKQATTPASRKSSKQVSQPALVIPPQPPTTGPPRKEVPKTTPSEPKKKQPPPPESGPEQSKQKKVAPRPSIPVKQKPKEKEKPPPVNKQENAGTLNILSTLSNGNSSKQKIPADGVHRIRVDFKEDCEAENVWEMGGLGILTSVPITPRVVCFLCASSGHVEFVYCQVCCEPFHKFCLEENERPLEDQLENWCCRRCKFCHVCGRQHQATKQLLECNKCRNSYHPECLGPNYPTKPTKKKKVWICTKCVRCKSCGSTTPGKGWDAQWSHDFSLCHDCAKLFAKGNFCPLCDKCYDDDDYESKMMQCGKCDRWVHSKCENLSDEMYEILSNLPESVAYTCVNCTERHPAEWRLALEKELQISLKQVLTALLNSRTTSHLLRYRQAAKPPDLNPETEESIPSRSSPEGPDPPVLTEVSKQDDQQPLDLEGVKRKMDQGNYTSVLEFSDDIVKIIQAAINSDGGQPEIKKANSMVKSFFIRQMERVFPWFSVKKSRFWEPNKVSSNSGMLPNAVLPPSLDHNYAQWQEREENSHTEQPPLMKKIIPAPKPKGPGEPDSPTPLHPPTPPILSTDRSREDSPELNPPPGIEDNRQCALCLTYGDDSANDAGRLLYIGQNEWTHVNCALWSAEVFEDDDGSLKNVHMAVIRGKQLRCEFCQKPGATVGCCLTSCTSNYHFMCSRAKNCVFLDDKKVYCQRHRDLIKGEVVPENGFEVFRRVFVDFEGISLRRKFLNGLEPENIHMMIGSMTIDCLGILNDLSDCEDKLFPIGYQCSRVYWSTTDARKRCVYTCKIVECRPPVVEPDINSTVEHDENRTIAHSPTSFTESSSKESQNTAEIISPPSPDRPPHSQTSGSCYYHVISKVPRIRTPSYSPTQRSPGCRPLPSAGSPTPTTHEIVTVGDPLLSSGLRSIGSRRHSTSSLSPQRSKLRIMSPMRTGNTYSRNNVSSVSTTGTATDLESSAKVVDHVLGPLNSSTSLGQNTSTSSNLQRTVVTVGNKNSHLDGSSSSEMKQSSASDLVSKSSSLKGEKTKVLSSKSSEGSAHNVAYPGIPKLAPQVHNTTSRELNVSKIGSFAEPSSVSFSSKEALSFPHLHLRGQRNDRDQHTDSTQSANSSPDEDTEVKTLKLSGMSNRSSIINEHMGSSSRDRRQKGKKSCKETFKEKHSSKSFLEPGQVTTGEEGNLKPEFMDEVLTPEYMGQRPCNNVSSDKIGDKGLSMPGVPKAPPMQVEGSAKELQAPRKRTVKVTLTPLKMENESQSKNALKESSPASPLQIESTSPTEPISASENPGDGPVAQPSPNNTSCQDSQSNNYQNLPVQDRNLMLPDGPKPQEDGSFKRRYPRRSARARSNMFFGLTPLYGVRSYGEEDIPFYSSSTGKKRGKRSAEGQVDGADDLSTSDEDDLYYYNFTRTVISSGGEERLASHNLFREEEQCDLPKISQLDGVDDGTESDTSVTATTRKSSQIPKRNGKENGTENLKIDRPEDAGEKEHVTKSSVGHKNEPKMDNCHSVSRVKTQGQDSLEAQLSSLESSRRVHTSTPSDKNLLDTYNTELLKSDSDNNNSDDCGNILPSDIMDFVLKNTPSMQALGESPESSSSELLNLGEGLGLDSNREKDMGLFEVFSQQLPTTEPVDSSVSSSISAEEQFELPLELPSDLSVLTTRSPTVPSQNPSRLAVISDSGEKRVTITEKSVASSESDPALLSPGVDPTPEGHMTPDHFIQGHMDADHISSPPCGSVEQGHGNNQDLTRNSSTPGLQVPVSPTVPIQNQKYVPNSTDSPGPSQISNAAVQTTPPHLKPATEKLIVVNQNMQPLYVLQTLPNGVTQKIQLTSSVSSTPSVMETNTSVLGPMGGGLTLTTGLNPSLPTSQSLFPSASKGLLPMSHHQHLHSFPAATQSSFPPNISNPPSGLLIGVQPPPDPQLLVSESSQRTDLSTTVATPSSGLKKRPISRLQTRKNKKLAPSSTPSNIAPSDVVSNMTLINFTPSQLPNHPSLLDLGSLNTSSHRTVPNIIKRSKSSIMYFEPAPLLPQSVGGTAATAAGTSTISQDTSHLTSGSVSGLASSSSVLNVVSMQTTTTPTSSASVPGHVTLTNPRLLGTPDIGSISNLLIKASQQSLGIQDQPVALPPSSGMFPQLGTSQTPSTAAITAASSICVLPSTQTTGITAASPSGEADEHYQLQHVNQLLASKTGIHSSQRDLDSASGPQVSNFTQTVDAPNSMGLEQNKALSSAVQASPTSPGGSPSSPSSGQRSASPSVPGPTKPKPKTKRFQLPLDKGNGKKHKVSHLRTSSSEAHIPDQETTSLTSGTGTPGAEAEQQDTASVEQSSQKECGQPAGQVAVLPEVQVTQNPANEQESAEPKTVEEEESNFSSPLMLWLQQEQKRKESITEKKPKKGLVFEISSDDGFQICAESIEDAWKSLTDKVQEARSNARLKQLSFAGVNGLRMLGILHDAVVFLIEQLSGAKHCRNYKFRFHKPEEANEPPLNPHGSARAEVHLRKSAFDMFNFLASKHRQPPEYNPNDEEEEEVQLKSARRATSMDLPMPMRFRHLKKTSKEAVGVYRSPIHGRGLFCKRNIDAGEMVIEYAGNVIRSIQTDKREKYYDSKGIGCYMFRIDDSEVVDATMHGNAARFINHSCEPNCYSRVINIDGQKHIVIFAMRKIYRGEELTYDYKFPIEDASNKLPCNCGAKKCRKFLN

For the assay, the target named is Histone-lysine N-methyltransferase 2A (Homo sapiens) (UniProt Q03164). Nature of the assay: qHTS Fluorescence Polarization Assay for Inhibitors of MLL CXXC domain - DNA interaction. The conditions noted are these: MLL-CXXC / FITC-HOXA9 DNA fluorescence polarization; at 115 µM (top of the series) unless noted. (In general: qHTS replaces the single test concentration by a dilution series.)
In the case of `C/C1=C2N=C(/C=C3N=C(/C(C)=C4\[N-][C@@](C)([C@H]5N=C1[C@@](C)(CCC(=O)NC[C@H](C)OP(=O)([O-])O[C@@H]1[C@H](O)[C@H](n6cnc7cc(C)c(C)cc76)O[C@@H]1CO)[C@@H]5CC(N)=O)[C@](C)(CC(N)=O)[C@H]4CCC(N)=O)[C@@](C)(CC(N)=O)[C@@H]\3CCC(N)=O)C(C)(C)[C@@H]/2CCC(N)=O.[C-]#N.[Co+3]`, the activity change, negative = inhibition was inactive: -18.1% [at 51.4 µM].

For `CC(C)OP(=O)(F)OC(C)C`, the activity change, negative = inhibition is inactive: -0.581%. Under `CCOC(=O)c1ccc(NP(C)(=O)Oc2ccc(Cl)cc2)cc1` (stereo not drawn) stands inactive: -1.6%. Take `CP(=O)(OC12CC3CC(CC(C3)C1)C2)OC12CC3CC(CC(C3)C1)C2`: the activity change, negative = inhibition is inactive: -2.45%.

Take `CC(C)(C)c1ccc(OP(C)(=O)O)cc1`: the activity change, negative = inhibition is inactive: -9.61%. Under `COc1ccccc1OP(C)(=O)Nc1ccccc1Br` (stereo not drawn) stands inactive: -2.27%. With `CP(=O)(Nc1ccc(Cl)cc1)Oc1ccc(F)cc1` (stereo not drawn), the activity change, negative = inhibition was inactive: 1.69%.

As for `COc1ccccc1OP(C)(=O)Nc1c(C)n(C)n(-c2ccccc2)c1=O` (stereo not drawn), the activity change, negative = inhibition is inactive: -10.7%.

As to `O=C(OCCCN1CCCC1)C(O)(c1ccccc1)C1CCCCC1` (stereo not drawn), the activity change, negative = inhibition is inactive: -1.73%. Consider `OCCSCCO`, for which the activity change, negative = inhibition was inactive: -4.56%. Under `CP(=O)(Oc1ccccc1)N1CCOC1=O` (stereo not drawn) stands inactive: 1.12%; under `CCc1ccc(OP(C)(=O)Nc2cccnc2)cc1` (stereo not drawn), inactive: 0.0788%. Consider `CCN(CC)CC(O)COC(=O)C(O)(c1ccccc1)C1CCCCC1` (stereo not drawn), for which the activity change, negative = inhibition is inactive: -1.53%. On to `COc1ccc(OP(C)(=O)Nc2ccc(Br)cc2)cc1` (stereo not drawn), for which the activity change, negative = inhibition is inactive: -5.69%. In the case of `CP(=O)(Nc1ccccn1)Oc1ccccc1` (stereo not drawn), the activity change, negative = inhibition was inactive: 7.29%. Regarding `COc1ccccc1OP(C)(=O)Nc1ccc(C)cc1C` (stereo not drawn), the activity change, negative = inhibition is inactive: -3.17%. As for `CCc1ccc(OP(C)(=O)O)cc1`, the activity change, negative = inhibition is inactive: 3.84%. As to `O=[N+]([O-])c1cc([N+](=O)[O-])c(Nc2ccccn2)c([N+](=O)[O-])c1`, the activity change, negative = inhibition is inactive: 9.93%. In the case of `Cc1c(NP(C)(=O)Oc2ccc(C(C)C)cc2)c(=O)n(-c2ccccc2)n1C` (stereo not drawn), the activity change, negative = inhibition was inactive: -5.4%. Take `COc1ccc(OP(C)(=O)Nc2ccccn2)cc1` (stereo not drawn): the activity change, negative = inhibition was inactive: -3.83%.

For `CN(C)CCOC(=O)C(O)(c1ccccc1)C1CCCC1` (stereo not drawn), the activity change, negative = inhibition was inactive: 6.02%. For `COc1ccccc1OP(C)(=O)Nc1ccc(Br)cc1` (stereo not drawn), the activity change, negative = inhibition is inactive: 2.78%. For the molecule `CP(=O)(OCCOc1ccccc1)OCCOc1ccccc1`, the activity change, negative = inhibition was inactive: -1.01%. As to `CP(=O)(Nc1ccc(Cl)cc1Cl)Oc1ccccc1` (stereo not drawn), the activity change, negative = inhibition is inactive: -0.385%. Regarding `Cc1nc2ccc3ccccc3c2o1.O=[N+]([O-])c1cc([N+](=O)[O-])c(O)c([N+](=O)[O-])c1`, the activity change, negative = inhibition was inactive: -7.05%. Take `COc1ccccc1OP(C)(=O)Nc1ccc(C)c(C)c1` (stereo not drawn): the activity change, negative = inhibition is inactive: -4.39%. Under `COc1ccc(OP(C)(=O)Nc2ccccc2Br)cc1` (stereo not drawn) stands inactive: 2.87%; under `Cc1cc(C)cc(OP(C)(=O)Nc2cccc(C(F)(F)F)c2)c1` (stereo not drawn), inactive: -0.34%; under `CP(=O)(Nc1ccccc1)Oc1ccc(F)cc1` (stereo not drawn), inactive: -1.94%. The same measure for `CCCCCOc1ccc(NP(C)(=O)Oc2ccc(Cl)cc2Cl)cc1` (stereo not drawn): inactive: 7.05%. Take `CCN(CC)CCCOC(=O)C(O)(c1ccccc1)C1CCCCC1` (stereo not drawn): the activity change, negative = inhibition is inactive: -2.37%. Take `CCOC(=O)c1ccc(NP(C)(=O)Oc2ccc(F)cc2)cc1` (stereo not drawn): the activity change, negative = inhibition was inactive: -1.29%. On to `COc1ccc(OP(C)(=O)Nc2ccc(SC(F)(F)F)cc2)cc1` (stereo not drawn), for which the activity change, negative = inhibition was inactive: -3.53%. The same measure for `O=C(OCCN1CCN(CCOCc2ccccc2)CC1)C(O)(c1ccccc1)c1ccccc1`: inactive: 4.79%; for `CP(=O)(Nc1ccccc1F)Oc1ccccc1` (stereo not drawn): inactive: 0.0583%; for `CC(C)c1ccc(OP(C)(=O)Nc2ccc(SC(F)(F)F)cc2)cc1` (stereo not drawn): inactive: 2.81%.

Consider `Cc1ccccc1NP(C)(=O)Nc1ccccc1C`, for which the activity change, negative = inhibition is inactive: 3.28%. For `CP(=O)(Nc1ccc2c(c1)OCCO2)Oc1ccccc1` (stereo not drawn), the activity change, negative = inhibition is inactive: 6.05%. Take `CCOP(C)(=S)SCC(=O)NC(C)(CC)C(=O)O` (stereo not drawn): the activity change, negative = inhibition is inactive: -2.45%. `CP(=O)(Nc1ccc(SC(F)(F)F)cc1)Oc1ccc(F)cc1` (stereo not drawn): the activity change, negative = inhibition is inactive: -10.5%. On to `O=[N+]([O-])c1ccc(OP2(=O)COCCO2)cc1` (stereo not drawn), for which the activity change, negative = inhibition was inactive: -0.0424%. On to `Cc1cc(-c2cccc3ccccc23)c(C)cn1.O=[N+]([O-])c1cc([N+](=O)[O-])c(O)c([N+](=O)[O-])c1`, for which the activity change, negative = inhibition was inactive: -8.03%.

In the case of `CN(C)CCOC(=O)C(O)(c1ccccc1)C1CCCCC1` (stereo not drawn), the activity change, negative = inhibition is inactive: 7.19%. `COc1ccc(NP(C)(=O)Oc2ccccc2OC)cc1` (stereo not drawn): the activity change, negative = inhibition is inactive: -4.74%. On to `COc1ccc(OP(C)(=O)Nc2cccc(Br)c2)cc1` (stereo not drawn), for which the activity change, negative = inhibition was inactive: -14.8%. For the molecule `CP(=O)(Nc1ccc(SC(F)(F)F)cc1)Oc1ccccc1` (stereo not drawn), the activity change, negative = inhibition was inactive: 11%. The same measure for `CCCOc1ccc(NP(C)(=O)Oc2ccc(Cl)cc2)cc1` (stereo not drawn): inactive: 11.2%. In the case of `CN1CCCCC1COC(=O)C1(O)c2ccccc2CCc2ccccc21` (stereo not drawn), the activity change, negative = inhibition was inactive: 4.83%. As for `COc1ccccc1OP(C)(=O)Nc1c(C)cccc1C` (stereo not drawn), the activity change, negative = inhibition was inactive: -3.3%.

As for `O=[N+]([O-])c1cc([N+](=O)[O-])c(Nc2nnnn2CCO)c([N+](=O)[O-])c1`, the activity change, negative = inhibition was inactive: 1.52%.

Take `Cc1nc2ccc3ccccc3c2s1.O=[N+]([O-])c1cc([N+](=O)[O-])c(O)c([N+](=O)[O-])c1`: the activity change, negative = inhibition is inactive: -1.28%. On to `O=[N+]([O-])c1cc([N+](=O)[O-])c(-n2nnc3ccccc32)c([N+](=O)[O-])c1`, for which the activity change, negative = inhibition was inactive: -0.55%. Turning to `Cc1ccc(C)c(NP(C)(=O)Oc2ccccc2)c1` (stereo not drawn), the activity change, negative = inhibition is inactive: -6.16%. Turning to `CP(=O)(Nc1cccc(Br)c1)Oc1ccccc1` (stereo not drawn), the activity change, negative = inhibition was inactive: 1.76%. `Cc1cc(C)cc(OP(C)(=O)Nc2ccccn2)c1` (stereo not drawn): the activity change, negative = inhibition was inactive: 7.96%.

For the molecule `CCOC(=O)c1ccc(NP(C)(=O)Oc2cc(C)cc(C)c2)cc1` (stereo not drawn), the activity change, negative = inhibition was inactive: 8.09%. `Cc1cc(C)cc(OP(C)(=O)Nc2ccc(C)cc2C)c1` (stereo not drawn): the activity change, negative = inhibition is inactive: 1.35%. As for `COc1ccccc1OP(C)(=O)Nc1cccc(Br)c1` (stereo not drawn), the activity change, negative = inhibition was inactive: 1.75%. With `CC1=NCCc2c1[nH]c1ccccc21.O=[N+]([O-])c1cc([N+](=O)[O-])c(O)c([N+](=O)[O-])c1`, the activity change, negative = inhibition was inactive: 10.3%. Under `O=[N+]([O-])c1cccc([N+](=O)[O-])c1` stands inactive: 8.25%; under `Cc1cc(C)cc(OP(C)(N)=O)c1` (stereo not drawn), inactive: 5.87%. For the molecule `COc1ccccc1OP(C)(=O)Nc1cc(Cl)ccc1C` (stereo not drawn), the activity change, negative = inhibition is inactive: -3.07%. With `COc1ccc(OP(C)(=O)Nc2cccc(F)c2)cc1` (stereo not drawn), the activity change, negative = inhibition was inactive: 10.7%.

Consider `COc1ccccc1OP(C)(=O)Nc1ccc(C)cc1` (stereo not drawn), for which the activity change, negative = inhibition was inactive: 1.95%. On to `Cc1ccc(NP(C)(=O)Oc2ccccc2)c(C)c1` (stereo not drawn), for which the activity change, negative = inhibition is inactive: -2.74%. With `CCOC(=O)c1ccc(NP(C)(=O)Oc2ccccc2)cc1` (stereo not drawn), the activity change, negative = inhibition was inactive: 8.24%.

In the case of `O=[N+]([O-])c1ccc2c(c1)C=Nc1ccccc1O2`, the activity change, negative = inhibition is inactive: -0.296%. Turning to `CC(C)(C)c1ccc(OP(C)(=O)Nc2ccc(SC(F)(F)F)cc2)cc1` (stereo not drawn), the activity change, negative = inhibition was inactive: 8.61%. Under `Cc1cccc(C)c1OP(C)(N)=O` (stereo not drawn) stands inactive: -2.93%; under `CCN(CC)CCCOC(=O)C(O)(c1ccccc1)c1ccccc1`, inactive: 2.01%. On to `CP(=O)(Nc1ccccn1)Oc1ccc(Cl)cc1` (stereo not drawn), for which the activity change, negative = inhibition was inactive: 0.476%. Under `CCOC(=O)c1ccc(NP(C)(=O)Oc2ccc(OC)cc2)cc1` (stereo not drawn) stands inactive: 3.88%; under `CN(C)CCS`, inactive: -3.1%; under `CCOP(C)(=S)SCC(=O)NC(C)C(=O)O` (stereo not drawn), inactive: -9.14%.

On to `CCc1ccc(OP(C)(=O)N2CCN(c3ccc([N+](=O)[O-])cc3)CC2)cc1` (stereo not drawn), for which the activity change, negative = inhibition was inactive: 8.69%. Turning to `CP(=O)(NC(=O)Nc1ccccc1)Oc1ccccc1` (stereo not drawn), the activity change, negative = inhibition was inactive: -2.12%.

In the case of `Cc1cc(C)cc(OP(C)(=O)Nc2ccc(SC(F)(F)F)cc2)c1` (stereo not drawn), the activity change, negative = inhibition was inactive: 13.6%. In the case of `CP(=O)(Nc1ccc(SC(F)(F)F)cc1)Oc1ccc(Cl)cc1` (stereo not drawn), the activity change, negative = inhibition was inactive: 0.345%.

As for `Cc1cccc(C)c1OP(C)(=O)Nc1ccc(SC(F)(F)F)cc1` (stereo not drawn), the activity change, negative = inhibition was inactive: 3.38%.

As to `CP(=O)(Oc1ccccc1)OC(c1ccccc1)C(F)(F)F` (stereo not drawn), the activity change, negative = inhibition is inactive: -0.894%. With `CP(=O)(Nc1ccccc1Br)Oc1ccccc1` (stereo not drawn), the activity change, negative = inhibition was inactive: 10.1%. For `COc1ccccc1OP(C)(=O)Nc1ccccc1` (stereo not drawn), the activity change, negative = inhibition is inactive: 12.1%. Consider `CP(=S)(Nn1cnnc1)Oc1ccccc1` (stereo not drawn), for which the activity change, negative = inhibition is inactive: 2.15%.

These data come from PubChem BioAssay AID2662 (National Center for Advancing Translational Sciences (NCATS), 2010).
